Test results reported in patent publication US20030068416A1, “Method of lyophylization to reduce solvent content and enhance product recovery” (priority 2001, published 2003).

Assay: Residual solvent content of human IgG and Albumin after freeze-drying with or without sodium ascorbate and/or mannitol (Example 5)
Assay type: physicochemical
Conditions: for residual moisture content: combination of ascorbate (100 mM) and mannitol (10%)
Experimental: When the solvent is water, the residual solvent content referenced herein refer to levels determined by the FDA approved, modified Karl Fischer method (Meyer and Boyd, Analytical Chem., 31:215-219, 1959; May, et al., J. Biol. Standardization, 10:249-259, 1982; Centers for Biologics Evaluation and Research, FDA, Docket No. 89D-0140, 83-93; 1990) or by near infrared spectroscopy.
Samples of human IgG and Albumin were each aliquoted into 3 ml Wheaton vials and partially stoppered with Stelmi stoppers. The vials were placed onto aluminum freeze-drying trays and placed into the freeze-dryer. Three independent freeze-drying runs were conducted for each protein. At the completion of each freeze-drying run, the vials were stoppered and sealed with aluminum seals until analyzed.
Human IgG—1 ml of reprocessed human IgG (10%) was added to vials. Additional vials contained (1) IgG+10% mannitol, (2) IgG+100 mM sodium ascorbate and (3) IgG+10% mannitol+100 mM sodium ascorbate.
Albumin—1 ml of either 12.5% or 25% Albumin was added to vials. Additional vials contained (1) Albumin+10% mannitol, (2) Albumin+100 mM sodium ascorbate and (3) Albumin+10% mannitol+100 mM sodium ascorbate.

[1] = absence of ascorbate (protein alone)
[2] = presence of 100 mM sodium ascorbate

| Substance | residual solvent content [1] | residual moisture content [%] | residual solvent content [2] | residual solvent content (presence of mannitol (10%)) [% water] |
| --- | --- | --- | --- | --- |
| 25% albumin preparation: 1 ml of 25% Albumin per vial | about 0.55 % water | 0.3 | about 0.5 % water | 0.35 |
| 12.5% albumin preparation: 1 ml of 12.5% Albumin per vial | about 1.25 % water | 0.3 | about 0.75 % water | 0.3 |
